This test addresses T1, in vitro translated hap polypeptide (Homo sapiens, UniProt P10826).
T1 construct: made in house; host or cells: rabbit reticulocyte lysate (in vitro translation of T7 transcripts of pCOD20)
The test can be described thus: Hormone-binding assay with in vitro translated hap polypeptide. Conditions: reticulocyte lysate, overnight 0° C., Dextran coated charcoal. The source says: The ability to express functional receptors in vitro from cloned c-erbA/steroid receptor genes led to the use of an in vitro translation assay to identify a putative hap ligand.
The coding region of hap was cloned into pTZ18 plasmid vector to allow in vitro transcription with the T7 RNA polymerase and subsequent translation in reticulocyte lysates. More particularly, ^35S-methionine-labelled products synthesized using T7 polymerase-catalysed RNA transcripts were separated on a 12% SDS-polyacrylamide gel, which was fluorographed. (DMSO-PPO). The lanes in FIG. 5 are as follows:
pCOD20 and pCOD14 were linearized with HindIII. Capped mRNA was generated using 5 ug of DNA, 5 uM rNTP, 25 mM DTT, 100 U RNAsin (Promega), 50 U T7 Pol (Genofit) in 40 mM Tris pH 8, 8mM MgCl2, 2 mM spermidine, 50 mM NaCl, in 100 ul at 37° C. Capping was performed by omitting GTP and adding CAP (m^7 G (5′) ppp (5′) G) (Pharmacia) for the 15 first minutes of the reaction.
After at least 2 h of incubation at 0° C., free was separated from bound by filtration through millipore HAWP 02500 filters using 10 ml of ice cold buffer. For testosterone, retinol, retinoic acid 10 ul of lysate were added to 45 lambda of 20 mM Tris pH 7.3, 1 mM EDTA, 50 mM NaCl, 2 mM beta-mercaptoethanol and […], […] or […] (81 ci/mmol; 60 Ci/mmol; 46 Ci/mmol; Amersham). […]

Amino acid sequences for entries named in this document (tags omitted). Residues count along the entry.
UniProt P10826, 1-448 isoform P10826-2: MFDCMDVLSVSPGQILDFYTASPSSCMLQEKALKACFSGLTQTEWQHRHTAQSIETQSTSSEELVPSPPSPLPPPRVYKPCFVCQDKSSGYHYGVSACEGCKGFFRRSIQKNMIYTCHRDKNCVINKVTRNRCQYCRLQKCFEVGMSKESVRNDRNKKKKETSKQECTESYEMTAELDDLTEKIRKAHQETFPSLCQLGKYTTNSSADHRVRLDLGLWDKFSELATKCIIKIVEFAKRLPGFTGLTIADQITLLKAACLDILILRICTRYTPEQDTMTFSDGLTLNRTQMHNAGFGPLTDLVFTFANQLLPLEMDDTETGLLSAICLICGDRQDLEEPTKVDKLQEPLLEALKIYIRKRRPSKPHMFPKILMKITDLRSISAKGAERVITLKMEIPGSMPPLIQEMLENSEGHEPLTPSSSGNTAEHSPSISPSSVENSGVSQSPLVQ

The record followed here is US7622266B2, “Identification of a synthetic ligand for retinoic acid receptor beta” (Institut Pasteur, priority 1987, dated 2009).

As to `CC1=C(/C=C/C(C)=C/C=C/C(C)=C/C(=O)O)C(C)(C)CCC1` [RA, All-trans-retinoic acid], the “binding of (3H)-labelled ligand to in vitro translated hap polypeptide” value is listed as “negative”.
